Laboratory results as given in patent US6500430B1, “Product and process to regulate actin polymerization in T lymphocytes” (National Jewish Medical and Research Center, priority 1995, dated 2002).

Test system: TCR-ζ
Experiment: Cell-free association of TCR-ζ with the actin cytoskeleton (detergent soluble lysate, newly polymerized pellet)
Assay type: biochemical, murine
Details: 1 mM ATP and above
Description: Freshly isolated murine thymocytes or lymph node T cells, or CD25/ζ-expressing T cell hybridomas, were washed 3 times in BSS and incubated in the presence or absence of cytochalasin D for 1.5 hrs at 4° C., solubilized with 0.5% NP-40 in a Tris buffered saline solution (TBS; 150 mM NaCl, 10 mM Tris, pH 7.3) containing protease and phosphatase inhibitors (0.2 mM VO3, 10 mM NaF, 1 mM PMSF, and 1 mg/ml each of Aprotinin, Leupeptin, and α-l-antitrypsin) and centrifuged at 10,000 rpm for 10 min to pellet the insoluble material. […] To increase actin polymerization, the Mg^2+ concentration was increased to 2 mM. […] Immunoprecipitation of the detergent soluble fraction with anti-TCR-ζ antibody was then performed as described in Example 4. The pellet and the anti-TCR-ζ immunoprecipitate were resolved by SDS-PAGE gel electrophoresis and immunoblotted with anti-TCR-ζ antibody.

Nc1ncnc2c1ncn2[C@@H]1O[C@H](COP(=O)(O)OP(=O)(O)OP(=O)(O)O)[C@@H](O)[C@H]1O [ATP]
Association of TCR-ζ with the lysis pellet: optimal
